# Source: published antibiotic growth screens (doi:10.1038/s41589-023-01349-8)
# The list shows a part of the results.
# Test system: A. baumannii ATCC 17978
# Test: relative growth (fraction of control); higher = less inhibition
# Conditions: 50 µM
row,SMILES,relative growth
1,N.N.[Cl][Pt][Cl],0.904
2,C=CCOC(=O)[C@@H]1[C@@H](C(=O)OC)N(C)[C@@H](c2ccccc2)[C@]12C(=O)Nc1ccc(I)cc12,1.13
3,CN1C[C@H](CNC(=O)OCc2ccccc2)C[C@@H]2c3cccc4c3c(cn4C)C[C@H]21,0.978
4,Br.COc1ccc2c(c1)[C@]13CCCC[C@@H]1[C@H](C2)N(C)CC3,0.675
5,CC[C@H]1C2CC3[C@@H]4N(C)c5ccccc5[C@]45C[C@@H](C2C5O)N3[C@@H]1O (stereo partly specified),0.904
6,O=C(C1CCCC1)N1C[C@@H]2CCNC[C@@H]21,1.03
7,COc1cccc(-c2ccc3c(CCN)c[nH]c3c2)c1,0.741
8,CCC[C@@H](CN)c1ccc(F)cc1,0.883
9,N#C[C@@]12[C@H]3CC=C[C@@H]1N2CC3 (stereo partly specified),0.957
10,COc1cc2c(c(OC)c1OC)-c1ccc(OC)c(=O)cc1[C@@H](NC(C)=O)CC2,1.13
11,CC1(C)NN1CCCN1NC1(C)C (stereo unspecified),0.996
12,C(=N/C12CN3CN(CN(C3)C1)C2)/c1cccnc1,0.964
13,O.O=c1ccc2cc(O[C@@H]3O[C@H](CO)[C@@H](O)[C@H](O)[C@H]3O)c(O)cc2o1,1.13
14,CC(=O)OCC1=C(C(=O)[O-])N2C(=O)[C@@H](NC(=O)CCCC(N)C(=O)[O-])C2SC1.[Zn+2] (stereo partly specified),0.901
15,Cc1c[nH]cn1,0.898
16,CC[C@]12C=CCN3CC[C@@]4(c5ccc(OC)cc5N(C)C4[C@@](O)(C(=O)OC)[C@@H]1OC(C)=O)[C@@H]32 (stereo partly specified),1.15
17,CN1C2CCC1CC(OC(=O)C(CO)c1ccccc1)C2.O=S(=O)(O)O (stereo unspecified),0.982
18,CC1=C2C(=CO[C@H](C)[C@H]2C)C(O)=C(C(=O)O)C1=O,0.843
19,C[C@H]1CN([C@@H](C)CO)C(=O)CCCn2nncc2CO[C@@H]1CN(C)C(=O)Oc1cccc2ccccc12,0.988
20,N#Cc1c(Cl)c(Cl)c(Cl)c(C#N)c1Cl,1.08
21,C[C@]12[C@H](O)CC3C(CC[C@@H]4C[C@@H](O)CC[C@]34C)[C@@]1(O)CC[C@@H]2C1=CC(=O)OC1 (stereo partly specified),0.913
22,CNC(=O)Oc1ccc2c(c1)[C@]1(C)CCN(C)[C@@H]1N2C.O=C(O)c1ccccc1O,0.89
23,CC(C)=CCCC1(C)C=Cc2c(O)c3c(c(CC=C(C)C)c2O1)OC12C(=CC4CC1C(C)(C)OC2(C/C=C(/C)C(=O)O)C4=O)C3=O (stereo unspecified),0.895
24,C=C1CC2C(CC[C@]3(C)C(=O)CCC23)[C@@]2(C)C=CC(=O)C=C12 (stereo partly specified),1.04
25,N#Cc1nn(-c2c(Cl)cc(C(F)(F)F)cc2Cl)c(N)c1S(=O)C(F)(F)F (stereo unspecified),0.98
26,C=CCOC(Cn1ccnc1)c1ccc(Cl)cc1Cl.O=S(=O)(O)O (stereo unspecified),0.829

row,SMILES,relative growth
1,NCCN1CCN(c2ccc(F)cc2)CC1,1.03
2,CN[C@@H](C)[C@H](O)c1ccccc1.Cl,0.968
3,C=C[C@H]1[C@H](O[C@@H]2O[C@H](CO)[C@@H](O)[C@H](O)[C@H]2O)OC=C2C(=O)OCC[C@H]21,0.983
4,c1ccc2c(c1)Nc1ccccc1S2,0.946
5,O[C@H]1[C@H]2[C@H](O)CCCN2C[C@H]1O,1.13
6,COc1ccc([C@@H](CN)C(C)C)cc1OC,0.928
7,Cc1ccc(/N=C/N(C)/C=N/c2ccc(C)cc2C)c(C)c1,1.03
8,"C[C@]12CCC(=O)C[C@@H]1CC[C@@H]1[C@@H]2CC[C@]2(C)C(=O)CC[C@@H]12 [5alpha-ANDROSTAN-3,17-DIONE]",0.971
9,COC(=O)[C@]1(Cc2ccccc2N=[N+]=[N-])N=C(c2ccc(OCCCO)cc2)O[C@@H]1c1ccccc1N=[N+]=[N-],1.27
10,CC(C)N(CCC(C(N)=O)(c1ccccc1)c1ccccn1)C(C)C.O=P(O)(O)O (stereo unspecified),1.18
11,CNC(=O)CSP(=S)(OC)OC,1.07
12,COc1cc2c(cc1O)CCNC2C (stereo unspecified),1.26
13,CC(=O)[O][Pb][O]C(C)=O,0.9
14,N#CCCN.O=C(O)/C=C/C(=O)O,0.936
15,CP(=O)(O)C1=CCNCC1,0.999
16,O=c1n(Cl)c(=O)n(Cl)c(=O)n1Cl,0.964
17,N#CC(c1ccccc1)c1ccccc1,0.676
18,O=C1NC(=S)NC(=O)C1c1ccccc1,0.838
19,O=C1CC2OCC=C3CN4CC[C@]56c7ccccc7N1C5[C@H]2[C@H]3CC46.O=S(=O)(O)O (stereo partly specified),0.602
20,COP(=O)(OC)C(O)C(Cl)(Cl)Cl (stereo unspecified),0.94
21,C=CCc1ccc2c(c1)OCO2,0.939
22,O=C1NC(=O)C(=C[C@@H]2CC=CCC2)C(=O)N1,0.956
23,CC(C)[C@]12O[C@H]1[C@@H]1O[C@]13[C@]1(O[C@H]1C[C@H]1C4=C(CC[C@@]13C)C(=O)OC4)[C@@H]2O,0.982
24,CC(=O)N[C@H]1C(=O)NC(=S)N(c2ccccc2)C1=O,1.13
25,C[C@@H]1NC[C@@H]2CCCN2C1=O,1.08
